We go through 24 molecules from PubChem BioAssay AID1778 (Sanford-Burnham Center for Chemical Genomics, 2009).

Protein sequences, listed by entry. Tags and fused reporters are not part of them. Lines headed by an entry give the natural chain unless they say otherwise; changes in a name come on top.
UniProt P41145: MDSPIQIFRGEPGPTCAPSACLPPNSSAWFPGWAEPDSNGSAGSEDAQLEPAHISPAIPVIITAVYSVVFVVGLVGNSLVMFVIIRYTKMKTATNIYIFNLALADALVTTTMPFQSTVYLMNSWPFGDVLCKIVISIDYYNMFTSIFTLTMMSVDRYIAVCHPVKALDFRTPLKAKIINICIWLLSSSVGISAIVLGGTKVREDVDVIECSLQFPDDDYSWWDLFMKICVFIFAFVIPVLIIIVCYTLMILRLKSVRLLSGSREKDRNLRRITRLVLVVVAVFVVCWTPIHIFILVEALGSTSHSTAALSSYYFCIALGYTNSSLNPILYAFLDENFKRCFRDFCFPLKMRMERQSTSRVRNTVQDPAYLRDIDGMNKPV

Molecules are shown by their SMILES. Some of the results follow. Entries with a potency or affinity are not part of this list. Active and inactive are the calls of the source. No stated cut-off is given here; in the data, active means inhibition above about 50%; inactive means the rest.

The experiment deals with Kappa-type opioid receptor (Homo sapiens) (UniProt P41145). Put plainly: KOR antagonists, beta-arrestin recruitment, cell-based, luminescence, uHTS (AID 1778). The following applies: antagonist mode, at 10 µM, active compounds read high. In general terms: Recruitment of arrestin is a read-out of receptor activation apart from second messengers.
With `O=P1(Nc2ncccn2)COc2ccccc2OC1`, the inhibition (commonly the drop in the measured response relative to a control, in per cent) is inactive: -87.6%.
The value for `Cn1c(=O)[nH]c(=O)c2c1nc(N1CCOCC1)n2CCN1CCOCC1` was inactive: 15.1%; that for `CCN(CC)C(=O)N1CCn2c(nc3ccccc32)C1` was inactive: -10%.
`Cc1ccc2c(c1)C1CN(C)CCC1N2C(=O)c1ccc(Br)o1` (centres undefined): the inhibition was inactive: -33%.
With `COC(=O)CSc1nc2ccccc2n1CC(=O)N(C(C)C)C(C)C` the figure was inactive: 2.1%; with `Nc1cccc([As](=O)(O)c2ccccc2)c1`, inactive: 32.5%.
The value for `CCOCN(C(=O)Cn1c(COC)nc2ccccc21)c1c(C)cccc1CC` was inactive: 20%.
With `Cn1c(=O)c2c(ncn2CC(=O)Nc2ccc(Cl)cc2Cl)n(C)c1=O`, the inhibition was inactive: -6.2%.
On to `COc1ccccc1N1CCN(C(=O)Cn2cnc3c2c(=O)n(C)c(=O)n3C)CC1`, for which the inhibition is inactive: -15.5%.
The value for `Cn1c(=O)[nH]c(=O)c2c1nc(CN1CCN(c3cccc(Cl)c3)CC1)n2CCN1CCOCC1` was inactive: 13.9%; that for `Cn1c(=O)c2ncn(CC(=O)NCCOCc3ccccc3Cl)c2n(C)c1=O` was inactive: -29.1%.
As to `O=C(Cn1c(-c2ccccc2Cl)nc2ccccc21)Nc1cccc(Cl)c1`, the inhibition is inactive: 10.4%.
The value for `Cn1c(=O)c2c(ncn2CC(=O)Nc2ccccc2Sc2ccccc2)n(C)c1=O` was inactive: -1.3%; that for `Cc1cc(NC(=O)Cn2cnc3c2c(=O)n(C)c(=O)n3C)n(-c2ccccc2)n1` was inactive: 30.1%; that for `CC(C)C[C@H](NC(=O)N1CCn2c1nc1ccccc12)C(=O)NCc1ccco1` was inactive: 4.9%.
With `Cc1ccc2c(c1)C1CN(C)CCC1N2C(=O)c1ccccc1NS(=O)(=O)c1ccc(F)cc1C` (centres undefined) the figure was inactive: -24.8%.
With `O=P1(Nc2ccc(Br)cn2)COc2ccccc2OC1` the figure was inactive: -35.4%; with `O=[As](O)(c1cccs1)c1cccs1`, inactive: 13.8%.
Consider `CCc1ccccc1NC(=O)CSc1nc2ccccc2n1CC(=O)N1CCCC1`, for which the inhibition is inactive: 10.8%.
On to `Cc1ccc(OCC(=O)OC2CN3CCC2CC3)cc1` (centres undefined), for which the inhibition is inactive: 20%.
Regarding `Cc1ccc(C(=O)N(C)c2ccc(OCC(=O)N3c4ccc(C)cc4C4CN(C)CCC43)cc2)cc1` (centres undefined), the inhibition was inactive: -24%.
In the case of `CCC(=O)N1CCn2c1nc1ccccc12`, the inhibition is inactive: -14.1%.
The value for `Cc1ccc2c(c1)C1CN(C)CCC1N2C(=O)Cn1nnc(-c2ccccc2F)n1` (centres undefined) was inactive: -2.9%; that for `Cn1c(CNc2nc3ccccc3n2CCN2CCCCC2)nc2ccccc21` was inactive: 1.2%.
